Article PMC3368506 (Journal of the American Chemical Society, 2012)

Sequences of proteins named here, by UniProt entry; tags and fusion partners are left off. Residues count along the entry.
UniProt P05067, 672-711 limits assumed: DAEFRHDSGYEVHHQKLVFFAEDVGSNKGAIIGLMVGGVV

Target: Aβ fibrils (Aβ40 peptide) (Homo sapiens, UniProt P05067)
Test: Fluorescence titration assay with Aβ fibrils
Format: binding

## Cc1ccc2c(c1)sc(-c1ccc(N(C)C)cc1)[n+]2C [ThT, Thioflavin T]
  Kd: 1170 nM
